Results taken from US12258584B2, “Methods and systems for converting precursor cells into intestinal tissues through directed differentiation” (Children's Hospital Medical Center, priority 2010, dated 2025).

Tests used:
[1] = test system: monolayers from human embryonic and induced pluripotent stem cells; assay: BMP2 added to monolayers during 96-hour WNT/FGF treatment, regional marker expression; format: cell-based; conditions: added during 96-hour WNT/FGF (W/F) treatment
Protocol: Following definitive endoderm (DE) induction with activin (100 ng/ml) for 3 days, a 2-4 day treatment was performed with the indicated combination of factors: Wnt3a (500 ng/ml) and Fgf4 (500 ng/ml), Retinoic acid (RA) in a range of 0.2-20 μM the BMP antagonist Noggin (50 ng/ml), the WNT antagonist […] (1-500 ng/ml).

intestinal organoids = assay: Intestinal regionalization of hindgut spheroids in 3D matrigel culture with BMP or noggin; format: cell-based, human; conditions: 3D cultures of hindgut spheroids; after 28 days
Protocol: For investigating the impact of BMP signaling on intestinal regionalization after hindgut formation, hindgut spheroids were plated in matrigel and BMP or noggin were added to EGF/Rspondid1 containing media. Intestinal organoids were analyzed after 28 days.

hESC-H9 = assay: Affymetrix microarray analysis of transcript levels during DE formation; format: cell-based, human; conditions: 3-day activin treated vs undifferentiated cultures, label = gene symbol of the transcript
Protocol: (§1) FIGS. 6a and 6b illustrate exemplary embodiments in accordance with the present invention, depicting characterization of DE formation from hESC and iPSC lines by immuno-fluorescence (IF) and Microarray analysis. (a) Undifferentiated hESCs stained with the pluripotency marker OCT4 (green) were treated for 3 days with ActivinA. This DE induction protocol routinely results in 80-90% SOX17 (green)/FOXA2 (red) double positive cells in both hESCs and iPSCs. (b) Transcriptional profile of DE induction. hESC-H9 and iPSC lines 3.5, 3.6 and 3.12 were analyzed before and after DE formation (activin differentiation) by Affymetrix DNA microarray analysis.
(§2) For microarray analysis, RNA was isolated from undifferentiated and 3-day activin treated hESC and iPSC cultures and used create target DNA for hybridization to Affymetrix Human 1.0 Gene ST Arrays using standard procedures (Affymetrix, Santa Clara, CA). Independent biological triplicates were performed for each cell line and condition. Affymetrix microarray Cel files were subjected to Robust Multichip Average (RMA) normalization in GeneSpring 10.1. Probe sets were first filtered for those that are overexpressed or underexpressed and then subjected to statistical analysis for differential expression by 3 fold or more between undifferentiated and differentiated cultures with p<0.05 using the Students T-test. […]

iPSC line 3.12 = assay: as above; format: cell-based, human; conditions: 3-day activin treated vs undifferentiated cultures, label = gene symbol of the transcript
Protocol: as §1, §2

iPSC3.4 = assay: as above; format: cell-based, human; conditions: 3-day activin treated vs undifferentiated cultures, label = gene symbol of the transcript
Protocol: For microarray analysis, RNA was isolated from undifferentiated and 3-day activin treated hESC and iPSC cultures and used create target DNA for hybridization to Affymetrix Human 1.0 Gene ST Arrays using standard procedures (Affymetrix, Santa Clara, CA). Independent biological triplicates were performed for each cell line and condition. Affymetrix microarray Cel files were subjected to Robust Multichip Average (RMA) normalization in GeneSpring 10.1. Probe sets were first filtered for those that are overexpressed or underexpressed and then subjected to statistical analysis for differential expression by 3 fold or more between undifferentiated and differentiated cultures with p<0.05 using the Students T-test. Log 2 gene expression ratios were then subjected to hierachical clustering using the standard correlation distance metric as implemented in GeneSpring.

With “BMP2: BMP ligand added to WNT/FGF monolayers or 3D organoid cultures to activate BMP signaling” the “expression of GATA4 compared to W/F alone” value [1] was “decreased expression”, the “expression of HOXA13 compared to W/F alone” value [1] was “increased expression” and the “expression of HOXC9 (distal small bowel and proximal colon) compared to W/F alone” value [1] was “increased expression”. The “expression of HOXD13 compared to W/F alone” value [1] was “increased expression”, the “expression of CA1 (carbonic anhydrase-colonocyte marker) compared to Nog/EGF/Rspo1 cocktail without BMP2” value (intestinal organoids) was “increased expression” and the “expression of HOXD13 compared to Nog/EGF/Rspo1 cocktail without BMP2” value (intestinal organoids) was “increased expression”. For the same substance, the “relative expression of PDX1 compared to Nog/EGF/Rspo1 cocktail without BMP2” value (intestinal organoids) was “decreased relative expression”, the “DIFF'D-H9] VS [IFF'D-H9] (folds), variation of transcript level during DE formation” value (hESC-H9) was 5.95 folds and the “[DIFF'D-IPSC3.12] VS [IFF'D-IPSC3.12] (folds), variation of transcript level during DE formation” value (iPSC line 3.12) was 7.43 folds. For the same substance, the “[Diff'd-iPSC3.4] vs [Undiff d-iPSC3.4] (folds), variation of transcript level during DE formation” value (iPSC3.4) was 6.96 folds.
